Laboratory results reported in ChEMBL document CHEMBL4371086, “An irreversible inhibitor of peptidyl-prolyl cis/trans isomerase Pin1 and evaluation of cytotoxicity” (Bioorg Med Chem Lett, 2019).

By UniProt entry, the sequences of proteins in these tests, tags left out.
UniProt Q13526, whole entry: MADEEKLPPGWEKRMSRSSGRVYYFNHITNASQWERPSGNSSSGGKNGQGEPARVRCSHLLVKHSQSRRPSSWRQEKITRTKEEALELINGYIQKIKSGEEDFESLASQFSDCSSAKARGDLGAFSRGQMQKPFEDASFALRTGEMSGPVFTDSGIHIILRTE

Target: Peptidyl-prolyl cis-trans isomerase NIMA-interacting 1 (Homo sapiens, UniProt Q13526)

| Kinact | Structure (SMILES) |
| --- | --- |
| 3.42 ×10⁻⁷ /s | O=C(/C=C/c1ccc2ccccc2c1)N[C@@H](CCC(=O)N1CCOCC1)C(=O)O |
| 9.41 ×10⁻⁸ /s | O=C(/C=C/c1ccc2ccccc2c1)N[C@H](CCC(=O)N1CCOCC1)C(=O)O |
